Data taken from ChEMBL document CHEMBL1152353, “Pyrimido[5,4-e][1,2,4]triazine-5,7(1H,6H)-dione derivatives as novel small molecule chaperone amplifiers” (Bioorg Med Chem Lett, 2009).
Calls of active or inactive are those of the source. No cut-off for these calls is given here.

Target: T1, Heat shock factor protein 1 (Homo sapiens) (UniProt Q00613)
T1 sequence (whole entry): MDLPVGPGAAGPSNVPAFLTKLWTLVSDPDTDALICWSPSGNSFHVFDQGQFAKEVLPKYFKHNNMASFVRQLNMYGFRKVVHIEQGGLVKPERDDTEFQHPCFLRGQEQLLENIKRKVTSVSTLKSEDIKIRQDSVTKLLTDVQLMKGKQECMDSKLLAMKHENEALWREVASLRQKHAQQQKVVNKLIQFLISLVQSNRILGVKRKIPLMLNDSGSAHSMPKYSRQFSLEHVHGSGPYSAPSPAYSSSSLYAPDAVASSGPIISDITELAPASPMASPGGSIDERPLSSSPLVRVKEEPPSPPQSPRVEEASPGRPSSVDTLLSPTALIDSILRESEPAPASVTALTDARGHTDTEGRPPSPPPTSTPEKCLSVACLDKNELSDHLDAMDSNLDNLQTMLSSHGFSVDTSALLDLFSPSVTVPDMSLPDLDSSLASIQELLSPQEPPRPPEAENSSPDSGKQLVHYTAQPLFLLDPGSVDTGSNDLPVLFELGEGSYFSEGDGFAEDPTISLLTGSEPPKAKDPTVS
Assay: Amplification of HSF1 transcriptional activity in human HeLa cells assessed as granule formation pretreated for 3 hrs by immunocytochemical staining
Assay type: cell-based
Method in brief: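 HeLa cells pretreated with compound 1 h, then mild heat shock 41 °C for 2 h, no recovery; control arm pretreated 3 h at 37 °C without heat shock. Compound diluted 200-fold, 0.3 to 80 µM range.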

Cn1c(=O)nc2[nH]nc(-c3cccs3)nc-2c1=O
Activity: inactive
